Patent publication US11161831B2, “Methods and compositions for treatment of muscle wasting, muscle weakness, and/or cachexia” (Baylor College of Medicine, priority 2013, dated 2021)

By UniProt entry, the sequences of proteins in these tests, tags left out. Residues count along the entry.
UniProt P40763, 2-770 limits assumed: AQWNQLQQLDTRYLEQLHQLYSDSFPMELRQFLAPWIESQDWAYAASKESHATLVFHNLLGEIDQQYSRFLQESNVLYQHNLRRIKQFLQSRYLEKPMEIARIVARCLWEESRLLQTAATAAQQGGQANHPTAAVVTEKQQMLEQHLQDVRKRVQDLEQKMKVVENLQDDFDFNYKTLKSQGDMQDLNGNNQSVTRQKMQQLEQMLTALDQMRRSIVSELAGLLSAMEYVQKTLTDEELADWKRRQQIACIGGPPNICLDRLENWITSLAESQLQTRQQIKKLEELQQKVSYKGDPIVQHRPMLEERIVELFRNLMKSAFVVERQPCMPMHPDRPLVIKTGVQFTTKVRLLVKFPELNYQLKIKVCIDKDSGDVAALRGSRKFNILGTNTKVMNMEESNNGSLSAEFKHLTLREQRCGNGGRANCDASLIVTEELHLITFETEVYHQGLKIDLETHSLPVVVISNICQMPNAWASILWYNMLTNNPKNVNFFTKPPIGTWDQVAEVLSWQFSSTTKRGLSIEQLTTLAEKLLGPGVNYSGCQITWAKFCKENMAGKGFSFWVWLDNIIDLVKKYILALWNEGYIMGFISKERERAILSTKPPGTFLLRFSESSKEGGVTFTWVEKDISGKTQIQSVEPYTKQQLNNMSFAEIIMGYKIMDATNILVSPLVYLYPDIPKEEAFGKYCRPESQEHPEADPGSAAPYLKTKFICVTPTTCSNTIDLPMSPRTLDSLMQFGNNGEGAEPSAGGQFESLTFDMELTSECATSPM

Biological target: T1, Stat3:hSIE complexes (Homo sapiens, UniProt P40763)
T1 construct: endogenous in cells; host or cells: HepG2
Assay: Electrophoretic mobility shift assay (EMSA), Stat3 binding to hSIE duplex oligonucleotide
Type: biochemical
Conditions: extracts of IL-6-stimulated HepG2 cells, compound 300 µM
Procedure: Electrophoretic mobility shift assays were performed using whole-cell extracts prepared from HepG2 cells without and with stimulation with IL-6 (30 ng/ml) for 30 min. Protein (20 μg) was incubated with radiolabeled duplex oligonucleotide (hSIE) and DMSO without or with the indicated compounds (300 uM) for 60 minutes at 37° C. then separated by PAGE. The gel was dried and autoradiographed; the portion of the gel corresponding to the Stat3-bound hSIE band is shown. Data shown are representative of 2 studies.
Electrophoretic Mobility Shift Assay (EMSA): EMSA was performed using the hSIE radiolabeled duplex oligonucleotide as a probe as described (Tweardy et al., 1995). Briefly, high salt extracts were prepared from HepG2 cells incubated without or with IL-6 (30 ng/ml) for 30 minutes. Protein concentration was determined by Bradford Assay and 20 ug of extract was incubated with compound (300 uM) for 60 minutes at 37° C. […] Gels were dried and autoradiographed.
Once in the nucleus, Stat3 dimers bind to specific DNA elements to activate and, in some instances, repress gene transcription. […] Compounds that bind to the phosphopeptide-binding site of Stat3 might be expected to do the same. […]

With `COC(=O)Cc1c(C)c2ccc(OCc3ccc(C(=O)OC)cc3)c(C)c2oc1=O` [Cpd3-7, methyl 4-({[3-(2-methyoxy-2-oxoethyl)-4,8-dimethyl-2-oxo-2H-chromen-7-yl]oxy}methyl)benzoate] the “amount of hSIE shifted (Stat3:hSIE band intensity)” value was “reduced the amount of hSIE shifted by half or greater”.
